{
  "sequences": {"note": "Chains of the proteins cited; added tags and fusions are not shown.", "UniProt P14735, whole entry, looked up": "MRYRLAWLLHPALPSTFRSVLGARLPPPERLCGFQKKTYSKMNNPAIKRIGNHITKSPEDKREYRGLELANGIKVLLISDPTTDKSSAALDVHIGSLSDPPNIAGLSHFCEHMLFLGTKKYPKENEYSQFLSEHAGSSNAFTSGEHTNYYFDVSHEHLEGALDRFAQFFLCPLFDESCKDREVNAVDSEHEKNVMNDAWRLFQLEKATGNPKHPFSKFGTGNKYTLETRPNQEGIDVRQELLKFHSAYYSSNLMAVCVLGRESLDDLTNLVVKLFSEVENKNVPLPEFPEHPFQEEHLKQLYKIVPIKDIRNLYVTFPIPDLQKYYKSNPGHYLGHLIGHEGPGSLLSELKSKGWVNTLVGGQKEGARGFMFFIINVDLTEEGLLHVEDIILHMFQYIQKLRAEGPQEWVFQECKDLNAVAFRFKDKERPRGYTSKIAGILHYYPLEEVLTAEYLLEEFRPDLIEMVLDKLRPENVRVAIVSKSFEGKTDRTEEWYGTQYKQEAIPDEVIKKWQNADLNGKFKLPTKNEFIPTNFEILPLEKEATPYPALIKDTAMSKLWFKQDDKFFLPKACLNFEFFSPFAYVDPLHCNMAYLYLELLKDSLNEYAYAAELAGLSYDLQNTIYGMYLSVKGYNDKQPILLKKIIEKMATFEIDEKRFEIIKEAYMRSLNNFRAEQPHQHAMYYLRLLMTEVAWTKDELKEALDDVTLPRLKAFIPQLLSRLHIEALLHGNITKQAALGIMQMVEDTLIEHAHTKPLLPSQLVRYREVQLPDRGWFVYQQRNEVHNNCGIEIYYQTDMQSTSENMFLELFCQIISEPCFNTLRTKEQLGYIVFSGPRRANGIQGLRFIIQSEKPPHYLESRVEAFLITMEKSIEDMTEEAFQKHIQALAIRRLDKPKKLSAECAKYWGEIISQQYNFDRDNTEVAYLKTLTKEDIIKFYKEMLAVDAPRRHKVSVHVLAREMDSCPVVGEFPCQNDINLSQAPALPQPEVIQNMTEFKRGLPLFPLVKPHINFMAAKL"},
  "source": "PubChem BioAssay AID435028",
  "about": "(The Scripps Research Institute Molecular Screening Center, 2010)",
  "note": "This is a selection; strong and weak results do not stand in their true shares. Active and inactive are the calls of the source.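 The calls were made as follows: active = mean inhibition across triplicate wells above the cutoff set by the earlier primary insulin-degrading enzyme screen (cut at about 16% in these data); inactive = the rest.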",
  "data": [
    {"biological_target": "Insulin-degrading enzyme (Homo sapiens) (UniProt P14735)", "experiment": "cellular IDE Abeta-cleavage inhibition – fluorescence polarization, HEK cells, FAbetaB substrate, confirmation (AID 435028);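 also: 0% = DMSO wells and 100% = 60 µM reference IDE inhibitor Ii1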", "conditions": "at 5.59 µM, hits give high values", "values": [
      {"smiles": "O=c1c2ccccc2[se]n1-c1ccccc1", "inhibition": "active: 33.8%"}
    ]}
  ]
}
